Data reported in ChEMBL document CHEMBL1136779 (J Med Chem, 2003).

Assays:
WiDr [1] = test: Cytotoxicity in WiDr cells expressing beta-galactosidase control; format: functional, cell-based, Homo sapiens
Outline: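 WiDr cells stably expressing surface-tethered CPG2 (stCPG2(Q)3) or β-galactosidase control; 2 × 10⁶ cells seeded, confluent after 48 h. Compound in DMSO stock diluted in medium, re-added at similar concentration after 1 h, further 20 h exposure. Cells reseeded in quadruplicate at ~2 × 10³/well, grown until controls confluent; SRB stain, 590 nm. IC50 from log dose-response sigmoid fit.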

WiDr [2] = test: Cytotoxicity in WiDr cells expressing surface-tethered carboxypeptidase G2 (CPG2)
[3] = Half-life period (prodrug) was determined; format: ADME
Outline: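 Aqueous stability: 100 µM compound in CPG2 assay buffer (100 mM Tris-HCl pH 7.3, 260 µM ZnCl₂). Remaining parent measured by isocratic reverse-phase HPLC (10 mM ammonium acetate pH 5.0/methanol, UV 250 or 265-275 nm) at several times. Half-life from one-phase exponential decay fit. Labile compounds instead followed by absorbance change over 3 min; t½ = 0.69/rate constant.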

SMILES | IC50 (WiDr [1]) | IC50 (WiDr [2]) | T1/2 [3]
CNc1ccc(N(CCBr)CCBr)cc1 | 7.2 µM | 7.4 µM | 
CNc1ccc(N(CCI)CCI)cc1 | 7.7 µM | 8.4 µM | 
Br.Nc1ccccc1N(CCBr)CCBr |  |  | 1 min
Br.Nc1ccc(N(CCBr)CCBr)cc1 |  |  | 2.3 min
Br.Nc1ccccc1N(CCCl)CCCl |  |  | 12.3 min
Br.CNc1ccc(N(CCCl)CCCl)cc1 |  |  | 8.3 min
Nc1ccccc1N(CCCl)CCCl | 3.5 µM | 2.4 µM | 
Nc1ccc(N(CCBr)CCBr)cc1 | 9.4 µM | 7.7 µM | 
Br.Nc1ccccc1N(CCI)CCI |  |  | 0.5 min
Br.CNc1ccc(N(CCI)CCI)cc1 |  |  | 0.6 min
CNc1ccc(N(CCCl)CCCl)cc1 | 9.2 µM | 8.2 µM | 
Br.CNc1ccc(N(CCBr)CCBr)cc1 |  |  | 2.7 min
Nc1ccccc1N(CCBr)CCBr | 23.4 µM | 18.6 µM | 
Nc1ccccc1N(CCI)CCI | 10.2 µM | 8.6 µM | 
